Where two headings read alike, the source gives them in different places. Numbered stars: 1 amine (or outer) side, 2 acyl side, 3 side chain; on linkers, the order of the positions; unused ones are H or OH. Bridge positions count the residues as written; N and C are the ends. Square brackets hold non-standard residues; d marks the D form. Peptide text beside a SMILES is read from it. I, II: the chains in the order shown. * marks the point of attachment. Actinocin(9to1) = Cc1c2oc3c(C)ccc(C(=O)[*:1])c3nc-2c(C(=O)[*:2])c(N)c1=O; NMeV = CN[C@H](C(=O)O)C(C)C; Cbz = O=C(OCc1ccccc1)*; Sar = CNCC(=O)O; CH2F = FC*
Test system: mTORC1 activity (pS6) in Tsc2-sh hippocampal neurons
Assay: mTORC1 high-content screen (mTORC1^HCA) with the Biomol collection library
[1] = Z-score of percent GFP+pS6+ neurons in compound-treated Tsc2-knockdown wells, DIV20, Biomol library screen, replica 1
[2] = Z-score of percent GFP+pS6+ neurons in compound-treated Tsc2-knockdown wells, DIV20, Biomol library screen, replica 2
[3] = Z-score of percent GFP+pS6+ neurons in compound-treated Tsc2-knockdown wells, DIV20, Biomol library, replica 1
[4] = Z-score of percent GFP+pS6+ neurons in compound-treated Tsc2-knockdown wells, DIV20, Biomol library, replica 2

Row | Molecule | T2 Zscore (Replica 1) | T2 Zscore (Replica 2) | other results
1 | NC(N)=NCCNS(=O)(=O)c1cccc2cnccc12 [HA-1004] | −0.4193 | −0.3001 | 
2 | CCCCCCCCCCCCCCCC(=O)NCCO [Palmitylethanolamide] |  |  | T2 Zscore (Replica 1) [1]: −0.03603; T2 Zscore (Replica 2) [2]: 1.796
3 | COCCCCCCCCCCCC(=O)O [12-Methoxydodecanoic acid] |  |  | T2 Zscore (Replica 1) [1]: 0.6379; T2 Zscore (Replica 2) [2]: 0.5946
4 | COc1cccc2c1cc([N+](=O)[O-])c1c(C(=O)O)cc3c(c12)OCO3 [Aristolochic acid] | −2.22 | −1.172 | 
5 | CN1C(C(=O)Nc2ccccn2)=C(O)c2ccccc2S1(=O)=O [Piroxicam] |  |  | T2 Zscore (Replica 1) [1]: 0.5738; T2 Zscore (Replica 2) [2]: −0.04834
6 | CCCCNc1cc(C(=O)O)cc(S(N)(=O)=O)c1Oc1ccccc1 [Bumetanide] |  |  | T2 Zscore (Replica 1) [3]: 1.388; T2 Zscore (Replica 2) [4]: 0.7833
7 | CCCCC/C=C\C/C=C\C/C=C\CCCCCCC(=O)NCCO [Anandamide (20:3,n-6)] | 0.6092 | 2.082 | 
8 | CCCCCCCCCCC/C=C\C(C)(C)/C=C\CCCC(=O)O [7,7-Dimethyleicosadienoic acid] | −0.1154 | 1.085 | 
9 | O=C(O)CN1C(=O)c2cccc3cccc(c23)C1=O [Alrestatin] |  |  | T2 Zscore (Replica 1) [3]: 0.8307; T2 Zscore (Replica 2) [4]: 2.016
10 | C[C@H]1CCC/C=C/[C@@H]2C[C@H](O)C[C@H]2[C@H](O)/C=C/C(=O)O1 [Brefeldin A] | 1.168 | −0.1747 | 
11 | CO[C@@]12[C@H](COC(N)=O)C3=C(C(=O)C(C)=C(N)C3=O)N1C[C@@H]1N[C@@H]12 [Mitomycin C] | −0.3674 | −0.7225 | 
12 | CCCCC[C@H](O)/C=C/[C@@H]1[C@@H](CC(=O)CCCCC(=O)O)[C@@H](O)C[C@H]1O [6-Keto-prostaglandin F1a] | −1.083 | −0.1527 | 
13 | COc1cccc(-c2cc(=O)c3ccccc3o2)c1N [PD 98059] | −0.4787 | −0.3382 | 
14 | O=C1NC(=O)C(c2ccccc2[N+](=O)[O-])=C1Nc1ccc(O)c(Cl)c1 [SB-415286] | −0.3053 | 0.3429 | 
15 | CC(C)(C)c1cc(/C=C(\C#N)C(N)=S)cc(C(C)(C)C)c1O [AG-879] | 0.7316 | −0.9815 | 
16 | C[S+]([O-])c1ccc(-c2nc(-c3ccc(F)cc3)c(-c3ccncc3)[nH]2)cc1 (centres unmarked) [SB 203580] | 0.2744 | 0.03102 | 
17 | CCCCC[C@H](O)CC(=O)CCc1ccc(O)c(OC)c1 [6-Gingerol] |  |  | T2 Zscore (Replica 1) [3]: 1.125; T2 Zscore (Replica 2) [4]: 1.46
18 | CC(C)NC[C@H](O)COc1cccc2ccccc12.Cl [(S)-(−)-propranolol • HCl] |  |  | T2 Zscore (Replica 1) [1]: 0.8998; T2 Zscore (Replica 2) [2]: 0.4738
19 | COC(=O)[C@@H]1[C@H]2C[C@H]3c4[nH]c5ccccc5c4CCN3C[C@@H]2CC[C@@H]1O [Yohimbine] |  |  | T2 Zscore (Replica 1) [1]: 0.6638; T2 Zscore (Replica 2) [2]: −0.2405
20 | Cc1cccc(CCN2CCC(C(=O)c3ccc(NS(C)(=O)=O)cc3)CC2)n1 [E-4031] | 0.2341 | −0.9518 | 
21 | CCCCC[C@@H](/C=C/C=C\C/C=C\C/C=C\CCCC(=O)O)OO [15(S)-HPETE] | −0.01728 | 0.6446 | 
22 | Cc1ccc(S(=O)(=O)/C=C/C#N)cc1 [BAY 11-7082] | −1.185 | −0.6295 | 

Row | Molecule | T2 Zscore (Replica 1) | T2 Zscore (Replica 2) | other results
23 | CCCCC/C=C\C/C=C\C/C=C\C/C=C\CCCC(N)=O [Arachidonamide] | 0.02015 | 0.7927 | 
24 | CCCCC/C=C\C/C=C\CCCCCCCCCC(=O)O [Eicosadienoic acid (20:2 n-6)] | −0.2059 | −1.688 | 
25 | Oc1ccc(-c2nc(-c3ccc(F)cc3)c(-c3ccncc3)[nH]2)cc1 [SB 202190] | −0.01429 | 0.3809 | 
26 | NC(=Nc1ccccc1)NC(=O)c1nc(Cl)c(N)nc1N [Phenamil] |  |  | T2 Zscore (Replica 1) [1]: 0.6466; T2 Zscore (Replica 2) [2]: −0.381
27 | O=C(NCCCCCCNC(=O)ON=C1CCCCC1)ON=C1CCCCC1 [RHC-80267] | 0.3508 | −0.1002 | 
28 | KN-62 | 0.2831 | 0.9362 | 
29 | Ro 20-1724 | 0.7131 | 0.1282 | 
30 | Cc1c2oc3c(C)ccc(C(=O)N[C@@H]4C(=O)N[C@H](C(C)C)C(=O)N5CCC[C@H]5C(=O)N(C)CC(=O)N(C)[C@@H](C(C)C)C(=O)O[C@@H]4C)c3nc-2c(C(=O)N[C@@H]2C(=O)N[C@H](C(C)C)C(=O)N3CCC[C@H]3C(=O)N(C)CC(=O)N(C)[C@@H](C(C)C)C(=O)O[C@@H]2C)c(N)c1=O [Actinomycin D] (I: T[dV]P[Sar][NMeV] / II: T[dV]P[Sar][NMeV]; ester I:1-I:C, II:1-II:C; linker I:N-II:N via Actinocin(9to1)) | −1.647 | −1.523 | 
31 | O=S(=O)(c1cccc2c(Cl)cccc12)N1CCCNCC1 [ML9] | 0.9512 | 0.2996 | 
32 | Clc1ccc(C2CC3CCC2N3)cn1 (racemic) [(±)-Epibatidine] | 1.863 | 0.5841 | 
33 | CC(=O)N[C@@H](CSC/C=C(\C)CCC=C(C)C)C(=O)O [N-Acetyl-S-geranyl-L-cysteine] |  |  | T2 Zscore (Replica 1) [1]: 0.00411; T2 Zscore (Replica 2) [2]: 0.8748
34 | O[C@H]1[C@H]2[C@H](O)CCCN2C[C@H]1O [swainsonine] | 0.3303 | 0.5023 | 
35 | CC1=NS(=O)(=O)c2cc(Cl)ccc2N1 [Diazoxide] |  |  | T2 Zscore (Replica 1) [1]: −0.09947; T2 Zscore (Replica 2) [2]: 1.244
36 | Cc1ccc(C(=O)Cn2c3c(sc2=N)CCCC3)cc1 [Pifithrin-α] | 0.5599 | −0.2488 | 
37 | O[C@H]1[C@H](O)[C@@H](O)CN2CC[C@H](O)[C@H]12 [Castanospermine] |  |  | T2 Zscore (Replica 1) [1]: 0.1435; T2 Zscore (Replica 2) [2]: 1.758
38 | C/C=C/C/C=C/CCC(=O)[C@H]1O[C@H]1C(N)=O [Cerulenin] |  |  | T2 Zscore (Replica 1) [1]: 0.0617; T2 Zscore (Replica 2) [2]: 0.8831
39 | Oc1cc(O)cc(/C=C/c2ccc(O)c(O)c2)c1 [Piceatannol] |  |  | T2 Zscore (Replica 1) [1]: 0.4133; T2 Zscore (Replica 2) [2]: 1.538
40 | COC(=O)C[C@H](NC(=O)[C@H](C)NC(=O)[C@@H](NC(=O)OCc1ccccc1)C(C)C)C(=O)CF [Z-VAD(OMe)-FMK] (Cbz-Val-Ala-Asp(OMe)-CH2F) | −0.5294 | −0.03524 | 
41 | COc1ccc([C@@H]2Sc3ccccc3N(CCN(C)C)C(=O)[C@@H]2OC(C)=O)cc1.Cl [Diltiazem • HCl] |  |  | T2 Zscore (Replica 1) [1]: −0.3876; T2 Zscore (Replica 2) [2]: 1.629
42 | CN(CCc1ccc(Cl)c(Cl)c1)CC(O)COc1ccc(NS(C)(=O)=O)cc1.Cl (centres unmarked) [AM 92016 • HCl] | 0.4686 | −0.2407 | 
43 | CC(C)n1cnc2c(NCc3ccccc3)nc(NCCO)nc21 [N9-Isopropylolomoucine] | −0.7594 | −0.08061 | 

— US20230218577A1, “USE OF HEAT SHOCK PROTEIN INHIBITORS FOR THE TREATMENT OF NEURODEVELOPMENTAL DISORDERS” (The Children's Medical Center Corporation, priority 2020, published 2023)
